Experimental data taken from patent US11207283B2, “Inactivators of toxoplasma gondii ornithine aminotransferase for treating toxoplasmosis and malaria” (priority 2016, dated 2021).

Legend:
[1] = target: T1, human OAT (Homo sapiens, UniProt P04181); settings: cited from earlier work
T1 sequence (P04181 36-439 limits assumed): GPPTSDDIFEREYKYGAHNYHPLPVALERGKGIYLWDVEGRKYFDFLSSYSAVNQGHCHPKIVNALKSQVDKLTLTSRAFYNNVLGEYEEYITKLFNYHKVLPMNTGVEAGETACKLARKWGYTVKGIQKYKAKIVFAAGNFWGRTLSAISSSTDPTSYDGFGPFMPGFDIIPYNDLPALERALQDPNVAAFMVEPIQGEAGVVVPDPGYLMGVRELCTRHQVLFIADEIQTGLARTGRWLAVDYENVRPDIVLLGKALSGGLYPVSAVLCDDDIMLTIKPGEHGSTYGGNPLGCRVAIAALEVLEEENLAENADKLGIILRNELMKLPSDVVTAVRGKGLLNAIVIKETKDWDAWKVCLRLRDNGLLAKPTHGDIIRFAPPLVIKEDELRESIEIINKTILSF

[2] = target: TgOAT; settings: time-dependent inactivators

gabaculine [Compound 23, reference compound]
activity against human OAT (in words) [1]: equally potent irreversible inhibitor | kinact/KI [2]: 183330 M⁻¹ s⁻¹ | kinact (rate constant of enzyme inactivation) ([2]; pH 8.0, 37° C.): 8.7 min⁻¹
